System: Aβ40/42
Experiment: Aβ40/42 level in brain of APP/PS1 transgenic mice, ELISA
Format: in vivo
Conditions: oral, 100 days, compared with TV group

CC(=O)Oc1ccccc1C(=O)Nc1ncc([N+](=O)[O-])s1 [NTZ, nitazoxanide, reference compound]
Aβ40/42 level in cerebral cortex and hippocampus (ELISA): significantly reduced Aβ40/42 level
